# Like-named read-outs stand apart in the source and are kept apart here.
# Sequences of proteins named here, by UniProt entry; tags and fusion partners are left off. Residues count along the entry.
# UniProt Q07820, 171-327: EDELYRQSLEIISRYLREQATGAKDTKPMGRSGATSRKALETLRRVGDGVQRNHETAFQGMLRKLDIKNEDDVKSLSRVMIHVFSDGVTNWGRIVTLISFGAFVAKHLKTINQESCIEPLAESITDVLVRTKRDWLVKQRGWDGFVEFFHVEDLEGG
# Molecular target: recombinant human Mcl-1 (Mcl-1/Bim interaction) (Homo sapiens (Human), UniProt Q07820)
# Assay: biochemical
# Format: binding
# Conditions: cell free Mcl-1:Bim TR-FRET
Compound,IC50 (Mcl-1 HTRF IC50 (μM)),IC50 (read-out: Mcl-1 HTRF IC50)
"C[C@@H]1[C@@H](C)C/C=C/[C@@](O)(CN2CCOCC2)[C@@H]2CC[C@H]2CN2C[C@@]3(CCCc4cc(Cl)ccc43)COc3ccc(cc32)C(=O)NS1(=O)=O (single isomer, unassigned) [Example 194]",148 pM,
"CO[C@]1(CN2C[C@H]3CCCCN3CC2=O)/C=C/C[C@H](C)[C@@H](C)S(=O)(=O)NC(=O)c2ccc3c(c2)N(C[C@@H]2CC[C@H]21)C[C@@]1(CCCc2cc(Cl)ccc21)CO3 [Example 154, (1S,3′R,6′R,7′R,8′E,11′S,12′R)-6-chloro-7′-methoxy-11′,12′-dimethyl-7′-(((9aR)-3-oxooctahydro-2H-pyrido[1,2-a]pyrazin-2-yl)methyl)-3,4-dihydro-2H,15′H-spiro[naphthalene-1,22′-[20]oxa[13]thia[1,14]diazatetracyclo[14.7.2.0˜3,6˜.0˜19,24˜]pentacosa[8,16,18,24]tetraen]-15′-one 13′,13′-dioxide]",,197 pM
"(1S,3′R,6′R,7′R,8′E,11′S,12′R)-6-chloro-7′-((9aS)-hexahydropyrazino[2,1-c][1,4]oxazin-8(1H)-ylmethyl)-7′-methoxy-12′-(2-methoxyethyl)-11′-methyl-3,4-dihydro-2H,15′H-spiro[naphthalene-1,22′-[20]oxa[13]thia[1,14]diazatetracyclo[14.7.2.0˜3,6˜.0˜19,24˜]pentacosa[8,16,18,24]tetraen]-15′-one 13,13′-dioxide [Example 11]",,98 pM
